Source: PubChem BioAssay (National Center for Advancing Translational Sciences (NCATS))
KDM4E inh – JMJD2E (human) inhibition; B2RXH2; JMJD2E catalytic domain, FDH-coupled NADH fluorescence (FDH is formaldehyde dehydrogenase); 1.6% of 230,000 active; AID 2147; Potency, µM (top dose mostly 57.1 µM), for the others: top-dose activity change, negative = inhibition, most hits filed as inhibitors; active = well fitted inhibition curve with a large enough effect, not every such curve was filed as active; inconclusive = small, poorly fitted or top-dose-only effect, or another doubt; inactive = no such curve, though single readings can be large or run the other way;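 note: potency is the fitted concentration of half-maximal effect; 0% = wells with enzyme and -100% = buffer wells without enzyme; nearly all actives have a fitted effect of over 50% in size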
ALDH1A1 block – inhibitors of human aldehyde dehydrogenase 1A1; P00352; Purified ALDH1A1, NADH fluorescence, propionaldehyde substrate; Potency, µM (doses to about 75.3 µM), for the others: at the top dose activity, negative = inhibition, hits mostly inhibitors; 7.3% of 220,000 active; AID 1030; active = well fitted inhibition curve with a large enough effect, not every such curve was filed as active; inconclusive = small, poorly fitted or top-dose-only effect, or another doubt; inactive = no such curve, though single readings can be large or run the other way;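 note: potency is the fitted concentration of half-maximal effect; plate controls were no enzyme wells and a reference inhibitor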
G9a block – G9a (human) methyltransferase inhibition | Q96KQ7 | G9a H3K9 monomethylation, AlphaScreen, 2 h | Potency, µM (doses to about 102 µM), for inactives: at the highest dose activity, negative = inhibition, usual class: inhibitors | 8.8% of 350,000 active | AID 504332; note: potency is the fitted concentration of half-maximal effect; % is set by controls: 0 for no effect and ±100 for the full control effect; nearly all actives have a fitted effect of over 75% in size
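G9a (20 nM) was preincubated 15 min with compound, then reacted 2 h at room temperature with 500 nM biotin-H3K9 peptide and 20 µM SAM. Monomethyl-H3K9 detected by AlphaScreen using anti-H3K9me1 antibody.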
Sfp inh – Sfp phosphopantetheinyl transferase inhibition; Q9F4F7; Biochemical Sfp PPTase activity, qHTS; Potency, µM, for the others: max response, negative = inhibition, most hits filed as inhibitors; 310,000 tested, 3.5% active; AID 1490; active = well fitted inhibition curve with a large enough effect; inconclusive = small, poorly fitted or top-dose-only effect, or another doubt; inactive = no such curve, though single readings can be large or run the other way;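 also: the enzyme is Sfp with the accession as filed and its product quenches rhodamine fluorescence; potency is read from the fitted curve at half-maximal effect; 0% = enzyme reaction without inhibitor and -100% = no enzyme wells; top concentration of the series not given in the record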
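Reaction rates are the 30-min fluorescence difference (ex 525, em 598 nm) in wells containing 15 nM Sfp, 5 uM rhodamine-CoA and 12.5 uM BHQ-2-YbbR at pH 7.6 with 10 mM MgCl2.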
Lamin A splicing – LMNA splicing modulation; Potency, µM (highest dose often 46.1 µM), for the others: at the top dose ratio change, negative = inhibition, most hits filed as inhibitors; 0.01% of 200,000 active; HeLa LMNA splicing GFP/RFP minigene ratio, 48 h; active = well fitted inhibition curve with a large enough effect in the signal ratio, with a control signal flat, not every such curve was filed as active; inconclusive = small, poorly fitted or top-dose-only effect, or effect the other way, or a change in a side signal; the % refers to the signal ratio; note: potency is the fitted concentration of half-maximal effect; % is set by controls: 0 for no effect and ±100 for the full control effect
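S3 HeLa stable clones carrying a lamin A-EGFP splicing minigene plus DsRed2 were seeded at 600 cells/well in Opti-MEM with 2% FBS, pin-dosed and incubated 48 h at 37°C. Acumen cytometry (488 nm) gave the GFP/RFP total-intensity ratio.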
miR-21 reporter – miR-21 reporter, rising signal. 340,000 tested, under 10 active. Potency, µM (highest dose often 38.3 µM), for the others: at the highest dose reporter change, positive = more light. HeLa miR-21 FLuc reporter, luciferase, 48 h. AID 2288; active = well fitted rising curve with a large enough effect; inconclusive = small, poorly fitted or top-dose-only effect; inactive = no such curve, though single readings can be large or run the other way;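 further: % of control where 0% means no effect; miR-21 action dims this reporter so a rising signal means less miR-21 action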
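Luminescence from a firefly luciferase reporter carrying a miR-21 binding site downstream, stably expressed under a CMV promoter in HeLa cells that make miR-21 endogenously, reports miRNA modulation after 48 h compound exposure up to approximately 40uM final.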
Numbers without * were called inactive; u = inconclusive; x = no result; [ ] = dose if it differs, or a comment. Shown are actives, neighbours in structure and some others; about 13% of the full set was active somewhere. Unless noted, calls come from the whole dose curve; as a rule, active = well fitted curve in the direction sought with a large enough effect; inconclusive = small, poorly fitted or top-dose-only effect, or another doubt; inactive = no such curve, though single readings can be large; an effect the other way counts as inactive or inconclusive.

| Structure | miR-21 reporter | Sfp inh | Lamin A splicing | ALDH1A1 block | G9a block | KDM4E inh |
| --- | --- | --- | --- | --- | --- | --- |
| CN(C)c1ccc(-c2cc(N(C)Cc3ccco3)ncn2)cc1 | x | -16% | 9% | u | -48%[0.501 µM] | x |
| COc1ccc(CNC(=O)COC(=O)C2CC2C)cc1OC (stereo not given) | x | x | x | x | 14µM* | x |
| CC1CC1C(=O)OCC(=O)NCc1ccc(Cl)cc1 (stereo not given) | -2% | -4% | 0% | 6% | 8%[59 µM] | 1% |
| COc1ccc(N/N=C(\C#N)C(=N)SCc2ccccc2)cc1 | 24% | -13% | u | u | 28µM* | 3% |
| COc1ccc(N/N=C(\C#N)C(=O)NCCc2ccc(OC)c(OC)c2)cc1 | -20% | -6% | x | u | 22µM* | -15% |
| CC(C)NC(=O)C(=O)NCCc1ccc(Cl)cc1 | -2% | 2% | 9% | 5% | 1.1µM* | 10% |
| O=C(NCCc1ccccc1)c1sc2ncccc2c1-n1cccc1 | -19% | x | -5%[46 µM] | x | -2%[59 µM] | x |
| COc1ccccc1/C=C1\SC(=S)N(CC(=O)NC2CCS(=O)(=O)C2)C1=O (stereo not given) | -1% | 0% | x | x | 42% | x |
| COc1ccc(CCNC(=O)C(=O)NCc2ccc(Cl)cc2)cc1OC | -2% | 20% | x | 0.63µM* | 6%[59 µM] | -5% |
| CC(Sc1ccsc1[N+](=O)[O-])C(=O)NCCc1ccc(Cl)cc1 (stereo not given) | 7% | 5% | -8% | 3.2µM* | 6%[59 µM] | -3% |
| COc1ccc(CCNC(=O)CCCOc2ccc(C)cc2)cc1OC | -4% | -9% | u | 28µM* | -9%[59 µM] | 0% |
| COc1ccc(CCNC(=O)CCCOc2ccc(Cl)cc2)cc1OC | 9% | 8% | x | x | 18% | x |
| COc1ccc(CCNC(=O)C(=O)Nc2ccc(C)cc2)cc1OC | 0% | x | -2%[46 µM] | x | 3%[59 µM] | x |
| COc1cccc(CNC(=O)C(=O)NCCc2ccc(OC)c(OC)c2)c1 | 2% | 7% | -9% | u | -8%[59 µM] | 8% |
| COc1ccc(CCNC(=O)C(=O)NCc2ccc(C)cc2)cc1OC | -11% | 13% | -12% | 3.2µM* | -5%[59 µM] | 3% |
| COc1cccc(Cn2c(=O)c(-c3ccccc3)nc3cnc(N(C)C)nc32)c1 | x | u | x | u | 5%[12.7 µM] | x |
| COC(=O)[C@@H]1CC[C@H](C)[C@@H](c2ccc(C)cc2)N1C(=O)c1ccc(/C=N\O[C@@H]2O[C@H](COC(C)=O)[C@H](OC(C)=O)[C@H](OC(C)=O)[C@H]2OC(C)=O)cc1 | x | -15% | x | 13%[13.5 µM] | x | x |
| CCc1ccc(-n2c(SCc3cccc(F)c3)nc3[nH]ncc3c2=O)cc1 | 5% | x | u | x | 3%[59 µM] | x |
| COc1ccc(OC)c(-c2nnc3n(Cc4ccc(C)cc4)c(=O)c4ccccc4n23)c1 | -4% | x | x | x | -31%[59 µM] | x |
| COCCSc1ccccc1C(=O)NCc1ccc(S(N)(=O)=O)cc1 | 0% | -9% | -1% | u | 45µM* | -7% |
| CCNS(=O)(=O)c1ccc(NC(=O)c2ccccc2SCCOC)cc1 | -1% | 2% | x | -10% | 16µM* | -1% |
| COCCSc1ccccc1C(=O)Nc1nnc(C)s1 | -2% | -1% | 4% | -12% | u | -2% |
| COCCSc1ccccc1C(=O)NCC1CCCO1 (stereo not given) | -5% | u | -7% | 1% | 6.3µM* | -3% |
| COCCSc1ccccc1C(=O)Nc1ccccc1C(C)C | -3% | 18µM* | u | -2% | 5µM* | -16% |

Compound profiles, as listed above:
`COc1ccc(CNC(=O)COC(=O)C2CC2C)cc1OC` (stereo not given) is listed with miR-21 reporter = x; Sfp inh = x; Lamin A splicing = x; ALDH1A1 block = x; G9a block = 14µM*; KDM4E inh = x
`COCCSc1ccccc1C(=O)Nc1ccccc1C(C)C` is listed with miR-21 reporter = -3%; Sfp inh = 18µM*; Lamin A splicing = u; ALDH1A1 block = -2%; G9a block = 5µM*; KDM4E inh = -16%

Later entries.
| Structure | miR-21 reporter | Sfp inh | Lamin A splicing | ALDH1A1 block | G9a block | KDM4E inh |
| --- | --- | --- | --- | --- | --- | --- |
| O=C(c1cccc(C(F)(F)F)c1)N1CCN(CCc2ccccc2)CC1 | 0% | 11% | x | x | x | x |
| CCN(CC)CCNC(=O)C(=O)NCC(c1cccnc1)N1CCN(c2ccc(F)cc2)CC1 (stereo not given) | 0% | x | 18%[46 µM] | x | -31%[59 µM] | x |
| COc1cc(C(=O)OC(C)CN2CCCCC2)cc(OC)c1OC (stereo not given) | -4% | 6% | x | x | u | x |
| CC1(C)OC(=O)C(=NNc2ccccc2)C(=O)O1 | -10% | 12% | 12% | 16µM* | -18% | -4% |
| CC1(C)OC(=O)C(=NNc2ccc(Cl)cc2)C(=O)O1 | -14% | 1% | 15% | 3.2µM* | -44%[59 µM] | 0% |
| CN(Cc1ccco1)C(=O)c1ccc2c(c1)N(Cc1ccccc1F)C(=O)c1ccccc1S2 | -2% | x | u | x | -31%[59 µM] | x |
| Cc1ccc(OCc2ccc(C(=O)NNC(=S)NCC3CCCO3)o2)c([N+](=O)[O-])c1 (stereo not given) | -3% | 3% | x | x | x | x |
| CCc1cccc(NC(=O)CCCCCC2NC(=O)NC2C)c1 (stereo not given) | -2% | 20% | 3%[46 µM] | u | 1.3µM* | 10% |
| CC1NC(=O)NC1CCCCCC(=O)Nc1ccc(F)c(Cl)c1 (stereo not given) | -2% | 20% | x | u | 1µM* | 3% |
| Cc1ccc(-n2nc(C(=O)Nc3ccc(F)cc3F)c3c4ccccc4n(C)c3c2=O)cc1 | 0% | x | x | x | 0%[59 µM] | x |
| Cc1cc(C)c(S(=O)(=O)N2CCOC2CNC(=O)C(=O)NCCN(C)C)c(C)c1 (stereo not given) | -2% | 0% | x | x | x | x |
| N#CCCSC(=S)[C@H]1CCCC1=N | x | x | x | 4%[13.5 µM] | x | x |
| CCOc1ccc(C(=O)NCC(=O)OCC(=O)c2ccc3c(c2)-c2ccccc2C3)cc1 | -16% | 8% | -19% | 10% | 71µM* | u |
| COc1ccccc1C(=O)NCC(=O)OCC(=O)c1ccc2c(c1)-c1ccccc1C2 | -21% | 5% | -19% | -6% | -5%[59 µM] | -26% |
| O=C(NNC1=NCCCCC1)c1ccccc1 | 0% | 8% | -2% | 6% | -51% | 16% |
| c1ccc(CNC2=NCCCC2)cc1 | 0% | -26% | u | 5% | 14µM* | -3% |
| O=C(NCC1CCCO1)c1ccc(N2CCCCC2)c([N+](=O)[O-])c1 (stereo not given) | -31% | 4% | x | x | x | x |
| CCOC(=O)N1CCN(C(=O)CSCc2nc(-c3ccccc3F)oc2C)CC1 | 12% | -1% | 8% | 22µM* | 47%[59 µM] | 1% |
| COc1ccc(-c2nc(CSCC(=O)N3CCN(C(=O)c4ccco4)CC3)c(C)o2)cc1OC | -6% | -7% | -2% | 20µM* | -8% | u |
| CCN1CCN(C(=O)CS(=O)Cc2nc(-c3cccc(C)c3)oc2C)CC1 (stereo not given) | -2% | -4% | x | x | -3% | x |
| COc1ccc(-c2nc(CSCC(=O)N3CCN(c4ccc(OC)cc4)CC3)c(C)o2)cc1 | 14% | x | x | x | 11µM* | x |
| Cc1cccc(-c2nc(CS(=O)CC(=O)N3CCc4ccccc4C3)c(C)o2)c1 (stereo not given) | 3% | 40µM* | -8% | u | 32µM* | -1% |
| O=C(Nc1nnc(C2=COCCO2)o1)c1ccc([N+](=O)[O-])cc1 | -3% | 10% | x | x | u | x |
| COCCn1c(=O)c(-c2cccs2)nc2cnc(Nc3ccccc3)nc21 | x | 29% | x | 0% | 7%[12.7 µM] | x |

Sorted by value in Sfp inh (low to high): 3 from the list above
compound,Sfp inh
c1ccc(CNC2=NCCCC2)cc1,-26%
O=C(NCC1CCCO1)c1ccc(N2CCCCC2)c([N+](=O)[O-])c1 (stereo not given),4%
O=C(Nc1nnc(C2=COCCO2)o1)c1ccc([N+](=O)[O-])cc1,10%
